Measured values reported in PubChem BioAssay (Tox21).
These results got no clear call from the source, so the numbers are uncertain. Unless noted, calls come from the whole dose curve.

Amino acid sequences for entries named in this document (tags omitted). A change or cut given only in a name is not applied to a line headed by its entry.
UniProt P04150: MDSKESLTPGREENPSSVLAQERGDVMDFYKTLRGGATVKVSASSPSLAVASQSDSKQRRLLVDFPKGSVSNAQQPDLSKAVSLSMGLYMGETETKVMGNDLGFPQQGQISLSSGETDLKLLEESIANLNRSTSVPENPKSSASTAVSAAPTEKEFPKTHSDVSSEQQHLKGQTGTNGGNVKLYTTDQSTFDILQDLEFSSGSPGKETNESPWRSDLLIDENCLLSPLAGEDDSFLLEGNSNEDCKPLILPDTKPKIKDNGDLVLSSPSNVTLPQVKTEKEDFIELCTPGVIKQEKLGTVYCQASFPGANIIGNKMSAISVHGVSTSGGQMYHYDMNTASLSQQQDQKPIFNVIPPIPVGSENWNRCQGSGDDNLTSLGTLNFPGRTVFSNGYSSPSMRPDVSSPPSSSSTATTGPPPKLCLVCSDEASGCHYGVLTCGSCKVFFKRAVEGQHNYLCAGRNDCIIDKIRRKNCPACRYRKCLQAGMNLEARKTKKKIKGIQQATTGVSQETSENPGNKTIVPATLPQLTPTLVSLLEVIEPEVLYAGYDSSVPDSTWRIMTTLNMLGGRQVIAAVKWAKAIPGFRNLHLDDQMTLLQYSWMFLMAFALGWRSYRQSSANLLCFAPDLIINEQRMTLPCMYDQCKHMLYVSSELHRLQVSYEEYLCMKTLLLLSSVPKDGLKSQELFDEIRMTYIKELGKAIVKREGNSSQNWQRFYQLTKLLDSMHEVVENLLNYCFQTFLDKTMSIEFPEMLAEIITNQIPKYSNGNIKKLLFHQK
UniProt P10275: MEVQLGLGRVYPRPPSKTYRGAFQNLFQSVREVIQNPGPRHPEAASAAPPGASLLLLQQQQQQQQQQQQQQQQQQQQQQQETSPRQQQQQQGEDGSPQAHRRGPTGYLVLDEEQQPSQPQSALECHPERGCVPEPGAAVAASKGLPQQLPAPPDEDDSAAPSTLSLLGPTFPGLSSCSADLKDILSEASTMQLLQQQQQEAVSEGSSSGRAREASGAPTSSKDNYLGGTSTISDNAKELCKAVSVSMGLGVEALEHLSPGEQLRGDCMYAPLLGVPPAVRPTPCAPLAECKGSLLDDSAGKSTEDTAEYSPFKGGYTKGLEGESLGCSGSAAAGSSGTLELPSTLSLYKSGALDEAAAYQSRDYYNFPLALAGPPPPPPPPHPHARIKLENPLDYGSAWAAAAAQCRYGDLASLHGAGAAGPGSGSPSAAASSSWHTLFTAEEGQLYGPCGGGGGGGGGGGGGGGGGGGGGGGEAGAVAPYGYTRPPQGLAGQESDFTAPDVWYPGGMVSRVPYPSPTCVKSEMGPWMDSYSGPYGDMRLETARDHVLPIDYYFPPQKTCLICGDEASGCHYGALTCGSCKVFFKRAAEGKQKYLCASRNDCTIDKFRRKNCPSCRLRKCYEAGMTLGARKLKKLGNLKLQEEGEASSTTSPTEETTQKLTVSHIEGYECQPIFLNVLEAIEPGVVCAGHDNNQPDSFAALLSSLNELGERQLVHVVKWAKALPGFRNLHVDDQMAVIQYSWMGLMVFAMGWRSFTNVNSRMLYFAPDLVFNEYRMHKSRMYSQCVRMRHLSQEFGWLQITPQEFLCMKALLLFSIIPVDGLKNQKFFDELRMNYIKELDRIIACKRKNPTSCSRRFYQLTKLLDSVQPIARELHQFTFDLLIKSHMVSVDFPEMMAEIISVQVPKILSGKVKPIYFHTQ
UniProt P37231: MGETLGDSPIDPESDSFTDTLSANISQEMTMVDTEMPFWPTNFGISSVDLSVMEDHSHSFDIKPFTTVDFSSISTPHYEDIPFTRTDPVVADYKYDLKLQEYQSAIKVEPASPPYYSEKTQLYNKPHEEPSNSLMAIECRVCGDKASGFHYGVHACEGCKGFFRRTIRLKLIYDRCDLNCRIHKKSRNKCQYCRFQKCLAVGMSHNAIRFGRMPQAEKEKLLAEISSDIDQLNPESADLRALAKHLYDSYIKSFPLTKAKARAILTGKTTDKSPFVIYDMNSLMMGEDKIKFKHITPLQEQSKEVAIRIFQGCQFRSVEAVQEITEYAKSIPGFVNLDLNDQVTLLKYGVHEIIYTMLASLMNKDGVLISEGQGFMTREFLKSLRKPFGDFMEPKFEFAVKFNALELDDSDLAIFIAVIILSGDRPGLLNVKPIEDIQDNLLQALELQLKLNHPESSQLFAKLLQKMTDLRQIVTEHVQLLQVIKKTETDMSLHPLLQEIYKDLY
UniProt Q03181: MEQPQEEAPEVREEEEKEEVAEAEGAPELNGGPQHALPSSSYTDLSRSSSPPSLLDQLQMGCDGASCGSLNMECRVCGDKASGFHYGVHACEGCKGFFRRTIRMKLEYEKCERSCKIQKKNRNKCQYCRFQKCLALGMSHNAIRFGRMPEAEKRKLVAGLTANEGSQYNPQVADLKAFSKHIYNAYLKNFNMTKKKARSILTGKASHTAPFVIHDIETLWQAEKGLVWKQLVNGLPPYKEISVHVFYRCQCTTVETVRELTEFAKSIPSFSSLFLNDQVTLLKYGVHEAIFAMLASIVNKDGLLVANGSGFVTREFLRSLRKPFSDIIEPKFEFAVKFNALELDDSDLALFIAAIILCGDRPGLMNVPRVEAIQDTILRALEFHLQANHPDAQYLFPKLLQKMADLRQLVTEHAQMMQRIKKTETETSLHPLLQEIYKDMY
UniProt Q96RI1: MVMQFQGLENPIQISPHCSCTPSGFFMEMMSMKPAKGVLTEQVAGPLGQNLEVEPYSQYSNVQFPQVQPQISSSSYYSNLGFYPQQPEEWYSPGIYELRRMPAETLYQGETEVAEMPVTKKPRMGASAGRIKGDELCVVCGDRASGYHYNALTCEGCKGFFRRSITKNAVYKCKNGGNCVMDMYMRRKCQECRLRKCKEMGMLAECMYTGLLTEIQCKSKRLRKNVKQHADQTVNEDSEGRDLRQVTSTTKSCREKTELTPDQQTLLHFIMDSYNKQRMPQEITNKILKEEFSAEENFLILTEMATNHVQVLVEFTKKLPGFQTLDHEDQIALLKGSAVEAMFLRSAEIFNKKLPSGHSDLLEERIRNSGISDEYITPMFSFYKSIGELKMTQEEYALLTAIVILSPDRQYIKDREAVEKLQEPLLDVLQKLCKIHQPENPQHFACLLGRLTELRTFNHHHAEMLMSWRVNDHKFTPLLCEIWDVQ
UniProt P16473, whole entry, looked up: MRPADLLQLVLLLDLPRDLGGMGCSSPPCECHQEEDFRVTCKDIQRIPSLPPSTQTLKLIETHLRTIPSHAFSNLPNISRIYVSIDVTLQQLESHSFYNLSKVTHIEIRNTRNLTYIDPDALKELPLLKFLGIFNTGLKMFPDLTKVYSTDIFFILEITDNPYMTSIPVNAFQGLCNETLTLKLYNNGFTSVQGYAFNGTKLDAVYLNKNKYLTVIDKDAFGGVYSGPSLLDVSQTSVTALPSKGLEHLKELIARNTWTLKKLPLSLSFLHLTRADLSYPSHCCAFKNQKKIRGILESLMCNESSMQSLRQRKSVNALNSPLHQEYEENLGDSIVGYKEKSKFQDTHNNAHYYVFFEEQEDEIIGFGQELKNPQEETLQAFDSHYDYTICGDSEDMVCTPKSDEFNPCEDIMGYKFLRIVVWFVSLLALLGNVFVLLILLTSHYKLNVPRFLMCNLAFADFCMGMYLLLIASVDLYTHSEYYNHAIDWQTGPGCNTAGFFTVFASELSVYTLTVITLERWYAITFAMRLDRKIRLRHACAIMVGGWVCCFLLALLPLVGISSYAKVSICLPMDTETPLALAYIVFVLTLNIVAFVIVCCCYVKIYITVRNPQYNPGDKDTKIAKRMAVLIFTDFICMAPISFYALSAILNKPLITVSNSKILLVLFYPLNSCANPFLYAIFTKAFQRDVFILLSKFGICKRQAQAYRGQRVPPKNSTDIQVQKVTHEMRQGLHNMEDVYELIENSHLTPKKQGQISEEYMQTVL
UniProt Q92731, whole entry, looked up: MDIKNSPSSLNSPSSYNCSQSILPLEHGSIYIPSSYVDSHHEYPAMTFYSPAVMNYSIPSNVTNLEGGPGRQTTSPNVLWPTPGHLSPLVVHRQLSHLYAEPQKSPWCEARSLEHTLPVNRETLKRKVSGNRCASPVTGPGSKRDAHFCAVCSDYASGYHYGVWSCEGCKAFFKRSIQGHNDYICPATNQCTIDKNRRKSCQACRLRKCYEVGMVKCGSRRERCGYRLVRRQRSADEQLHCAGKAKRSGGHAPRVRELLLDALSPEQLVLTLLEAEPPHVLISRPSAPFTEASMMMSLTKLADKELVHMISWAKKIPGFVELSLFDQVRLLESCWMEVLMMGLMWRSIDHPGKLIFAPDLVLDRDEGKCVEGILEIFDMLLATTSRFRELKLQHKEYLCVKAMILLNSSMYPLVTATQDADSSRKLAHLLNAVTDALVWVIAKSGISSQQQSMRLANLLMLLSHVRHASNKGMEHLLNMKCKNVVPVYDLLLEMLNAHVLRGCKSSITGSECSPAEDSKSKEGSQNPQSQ
UniProt P05177, whole entry, looked up: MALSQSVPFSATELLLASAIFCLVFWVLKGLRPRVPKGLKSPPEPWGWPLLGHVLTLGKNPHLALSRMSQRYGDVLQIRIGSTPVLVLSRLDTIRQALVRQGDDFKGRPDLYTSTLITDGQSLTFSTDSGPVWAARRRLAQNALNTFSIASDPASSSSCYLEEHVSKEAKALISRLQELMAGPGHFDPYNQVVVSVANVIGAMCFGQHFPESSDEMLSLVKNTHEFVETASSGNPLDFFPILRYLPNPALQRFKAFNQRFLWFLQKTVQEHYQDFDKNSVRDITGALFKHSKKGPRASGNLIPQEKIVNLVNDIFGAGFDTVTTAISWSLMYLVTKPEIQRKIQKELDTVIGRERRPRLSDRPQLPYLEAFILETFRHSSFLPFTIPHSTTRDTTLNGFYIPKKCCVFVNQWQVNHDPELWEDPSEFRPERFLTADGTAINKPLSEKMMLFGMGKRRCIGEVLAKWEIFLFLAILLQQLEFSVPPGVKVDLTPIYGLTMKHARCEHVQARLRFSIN
UniProt P19793: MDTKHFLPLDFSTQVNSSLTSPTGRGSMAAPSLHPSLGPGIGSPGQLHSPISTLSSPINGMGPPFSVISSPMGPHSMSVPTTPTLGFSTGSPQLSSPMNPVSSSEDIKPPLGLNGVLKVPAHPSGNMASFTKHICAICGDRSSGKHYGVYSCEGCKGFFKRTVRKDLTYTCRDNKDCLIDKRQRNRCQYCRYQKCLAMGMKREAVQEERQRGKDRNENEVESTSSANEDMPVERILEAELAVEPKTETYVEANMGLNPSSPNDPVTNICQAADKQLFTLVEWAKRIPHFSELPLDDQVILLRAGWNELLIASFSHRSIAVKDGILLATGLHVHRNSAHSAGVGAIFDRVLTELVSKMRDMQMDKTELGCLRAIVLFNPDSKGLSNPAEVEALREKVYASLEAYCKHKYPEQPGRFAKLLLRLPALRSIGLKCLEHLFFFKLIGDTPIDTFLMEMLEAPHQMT
UniProt P06401: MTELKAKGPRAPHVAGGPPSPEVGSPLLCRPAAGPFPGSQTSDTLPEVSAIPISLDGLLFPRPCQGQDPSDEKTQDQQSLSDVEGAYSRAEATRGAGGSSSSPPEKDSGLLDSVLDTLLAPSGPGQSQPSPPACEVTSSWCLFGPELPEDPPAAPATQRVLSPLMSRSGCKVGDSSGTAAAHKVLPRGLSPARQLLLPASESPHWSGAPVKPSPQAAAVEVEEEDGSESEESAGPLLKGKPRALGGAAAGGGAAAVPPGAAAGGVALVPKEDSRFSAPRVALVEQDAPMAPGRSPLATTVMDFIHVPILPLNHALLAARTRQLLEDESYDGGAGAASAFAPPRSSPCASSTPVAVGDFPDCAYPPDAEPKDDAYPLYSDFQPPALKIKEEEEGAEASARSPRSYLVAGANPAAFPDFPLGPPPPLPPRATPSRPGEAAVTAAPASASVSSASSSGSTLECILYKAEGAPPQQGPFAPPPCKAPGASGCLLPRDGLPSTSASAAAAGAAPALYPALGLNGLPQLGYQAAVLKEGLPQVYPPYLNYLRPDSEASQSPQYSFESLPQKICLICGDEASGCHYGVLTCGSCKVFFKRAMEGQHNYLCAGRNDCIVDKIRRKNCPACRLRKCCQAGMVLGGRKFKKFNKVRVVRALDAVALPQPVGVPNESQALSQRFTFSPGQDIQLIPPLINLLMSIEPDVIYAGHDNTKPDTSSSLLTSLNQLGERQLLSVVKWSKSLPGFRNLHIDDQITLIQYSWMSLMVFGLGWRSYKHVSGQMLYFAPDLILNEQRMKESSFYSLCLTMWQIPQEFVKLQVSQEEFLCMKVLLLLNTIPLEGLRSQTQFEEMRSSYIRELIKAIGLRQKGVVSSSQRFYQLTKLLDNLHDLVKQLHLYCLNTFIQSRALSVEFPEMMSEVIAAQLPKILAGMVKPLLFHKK

What was measured:
[1] = target: Glucocorticoid receptor (Homo sapiens) (UniProt P04150); assay: qHTS assay to identify small molecule agonists of the glucocorticoid receptor (GR) signaling pathway (AID 720691; active = well fitted activation curve with a large enough effect in the signal ratio in the repeat runs, not every such curve was filed as active; inconclusive = weak or mixed curves, or effect the other way; inactive = no such curve, though single readings can be large or run the other way; the % refers to the signal ratio; note: potency is the fitted concentration of half-maximal effect); conditions: GR-bla HeLa, beta-lactamase reporter ratio, 18 h
[2] = target: Glucocorticoid receptor (Homo sapiens) (UniProt P04150); assay: qHTS assay to identify small molecule antagonists of the glucocorticoid receptor (GR) signaling pathway (AID 720692; active = well fitted inhibition curve with a large enough effect in the signal ratio in the repeat runs, not every such curve was filed as active; inconclusive = weak or mixed curves, or effect the other way; inactive = no such curve, though single readings can be large or run the other way; the % refers to the signal ratio; note: potency is the fitted concentration of half-maximal effect); conditions: GR-bla HeLa, beta-lactamase FRET ratio, dexamethasone-stimulated, 18 h; activity change, negative = inhibition: at 58.5 µM (top of the series)
[3] = target: Androgen receptor (Homo sapiens) (UniProt P10275); assay: qHTS assay to identify small molecule agonists of the androgen receptor (AR) signaling pathway (AID 743036; active = well fitted activation curve with a large enough effect in the signal ratio in the repeat runs, with a control signal flat, not every such curve was filed as active; inconclusive = weak or mixed curves, or effect the other way; inactive = no such curve, though single readings can be large or run the other way; the % refers to the signal ratio; note: potency is the fitted concentration of half-maximal effect); conditions: HEK293 AR-UAS-bla GripTite, beta-lactamase FRET ratio, 16 h; activation: at 62.4 µM (top of the series)
[4] = qHTS assay to identify small molecule antagonists of the estrogen receptor alpha (ER-alpha) signaling pathway using the BG1 cell line (AID 743080); conditions: BG1Luc4E2 ERE-luciferase antagonist mode, luminescence;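 note: BG1 cells stimulated with 17beta-estradiol alongside compound; potency is the fitted concentration of half-maximal effect; nearly all actives have a fitted effect of over 25% in size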
In short: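 Luminescence from a 4×ERE-luciferase reporter in BG1-Luc-4E2 cells served as read-out. Cells, pre-cultured 5 days in stripped-serum phenol-red-free medium, were exposed to compound with 17beta-estradiol co-stimulation for 21.5 h at 37 C.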

[5] = target: Peroxisome proliferator-activated receptor gamma (Homo sapiens) (UniProt P37231); assay: qHTS assay to identify small molecule agonists of the peroxisome proliferator-activated receptor gamma (PPARg) signaling pathway (AID 743094; active = well fitted activation curve with a large enough effect in the signal ratio in the repeat runs, not every such curve was filed as active; inconclusive = weak or mixed curves, or effect the other way; inactive = no such curve, though single readings can be large or run the other way; the % refers to the signal ratio; note: potency is the fitted concentration of half-maximal effect); conditions: HEK293H PPARg-UAS-bla, beta-lactamase FRET ratio, 17 h; activation: at 57 µM (top of the series)
In short: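 Compounds dissolved in DMSO were added to PPARg UAS-bla HEK293H cells for 17 h at 37C, and reporter expression was quantified by fluorescence intensity after 1 h with LiveBLAzer B/G FRET substrate.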

[6] = target: Peroxisome proliferator-activated receptor gamma (Homo sapiens) (UniProt P37231); assay: qHTS assay to identify small molecule antagonists of the peroxisome proliferator-activated receptor gamma (PPARg) signaling pathway (AID 743191); conditions: HEK293H PPARg-UAS-bla, beta-lactamase ratio, antagonist, 17 h; ratio activity, negative = inhibition: at 62.6 µM (top of the series); note: potency is the fitted concentration of half-maximal effect; nearly all actives have a fitted effect of over 30% in size
[7] = qHTS assay for small molecule agonists of the antioxidant response element (ARE) signaling pathway (AID 743202; active = well fitted activation curve with a large enough effect in the signal ratio in the repeat runs, not every such curve was filed as active; inconclusive = weak or mixed curves, or effect the other way; inactive = no such curve, though single readings can be large or run the other way; the % refers to the signal ratio; note: potency is the fitted concentration of half-maximal effect); conditions: HepG2 ARE-bla reporter, beta-lactamase FRET, 16 h; activation: at 73.3 µM (top of the series)
In short: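 Read-out: LiveBLAzer B/G FRET substrate fluorescence after 2 h at room temperature, following 16 h compound treatment at 37 C of HepG2 cells carrying an ARE-driven beta-lactamase reporter.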

[8] = target: Peroxisome proliferator-activated receptor delta (Homo sapiens) (UniProt Q03181); assay: qHTS assay to identify small molecule agonists of the peroxisome proliferator-activated receptor delta (PPARd) signaling pathway (AID 743212); conditions: HEK293H PPARd-UAS-bla, beta-lactamase FRET ratio, 17 h; activation: at 62.6 µM (top of the series); note: % is set by controls: 0 for no effect and ±100 for the full control effect
In short: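 GeneBLAzer PPARd UAS-bla HEK293H cells (beta-lactamase reporter under UAS control), plated and rested 5 h at 37 C, then exposed to compounds in DMSO at 37 C; LiveBLAzer B/G FRET substrate added, 2 h room temperature, fluorescence read.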

[9] = target: Bile acid receptor (Homo sapiens) (UniProt Q96RI1); assay: qHTS assay to identify small molecule antagonists of the farnesoid-X-receptor (FXR) signaling pathway (AID 743217; active = well fitted inhibition curve with a large enough effect in the signal ratio in the repeat runs, not every such curve was filed as active; inconclusive = weak or mixed curves, or effect the other way; inactive = no such curve, though single readings can be large or run the other way; the % refers to the signal ratio; note: potency is the fitted concentration of half-maximal effect); conditions: HEK293T FXR-UAS-bla, beta-lactamase ratio, CDCA-stimulated, 16 h; activity change, negative = inhibition: at 81.1 µM (top of the series)
In short: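 GeneBLAzer FXR-UAS-bla HEK 293T, CDCA-stimulated (50 uM final). Compound treatment 16 h, 37 °C. Detection: beta-lactamase cleavage of B/G FRET substrate, fluorescence.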

[10] = qHTS assay to identify small molecule agonists of the NFkB signaling pathway (AID 1159509; active = well fitted curve in the direction sought with a large enough effect in the signal ratio in the repeat runs, not every such curve was filed as active; inconclusive = weak or mixed curves, or a change in a side signal; inactive = no such curve, though single readings can be large or run the other way; the % refers to the signal ratio; note: potency is the fitted concentration of half-maximal effect); conditions: NFkB-bla ME-180 cells, beta-lactamase FRET ratio, 5 h
In short: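 After overnight attachment, reporter cells received test compounds, DMSO or positive controls and were incubated 5 hr at 37 C. FRET substrate was then added for 1.5 hr at room temperature before dual-emission fluorescence reading.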

[11] = qHTS assay to identify small molecule agonists of the endoplasmic reticulum stress response signaling pathway (AID 1159516; active = well fitted activation curve with a large enough effect in the signal ratio in the repeat runs, not every such curve was filed as active; inconclusive = weak or mixed curves, or effect the other way; the % refers to the signal ratio; note: potency is the fitted concentration of half-maximal effect); conditions: ESRE-bla HeLa, ER stress beta-lactamase reporter, 5 h
In short: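 An ESRE-bla HeLa cell assay: compounds were pin-transferred from DMSO onto overnight-plated cells and left 5 hr at 37 C. Substrate was then loaded for 2 hr at room temperature before reading fluorescence at 460 nm and 530 nm.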

[12] = qHTS assay to identify small molecule agonists of the AP-1 signaling pathway (AID 1159526); conditions: ME-180 (cervical carcinoma) AP-1-bla reporter, beta-lactamase FRET ratio, 5 h; activation: at 76.8 µM (top of the series); note: potency is the fitted concentration of half-maximal effect
[13] = qHTS assay to identify small molecule agonists of the retinoic acid receptor (RAR) signaling pathway (AID 1159553; active = well fitted curve in the direction sought with a large enough effect in the repeat runs; inconclusive = weak or mixed curves; inactive = no such curve, though single readings can be large; an effect the other way counts as inactive or inconclusive; note: potency is the fitted concentration of half-maximal effect); conditions: C3RL4 RARE luciferase reporter, agonist, 6 h; activation: at 73.3 µM (top of the series)
In short: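 Reporter readout comes from luciferase under RARE control in C3RL4 cells; compound exposure lasts 6 hr at 37 C in 5% CO2, and luminescence is recorded following a 30 min room-temperature incubation with reagent.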

[14] = target: Thyrotropin receptor (Homo sapiens) (UniProt P16473); assay: qHTS assay to identify small molecule agonists of the thyroid stimulating hormone receptor (TSHR) signaling pathway (AID 1224843); conditions: TSHR-HEK293 cells, cAMP HTRF, agonist mode, 30 min; activation: at 92.4 µM (top of the series); note: potency is the fitted concentration of half-maximal effect; nearly all actives have a fitted effect of over 45% in size
[15] = qHTS assay to identify small molecule agonists of the hypoxia (HIF-1) signaling pathway (AID 1224846; active = well fitted activation curve with a large enough effect in the signal ratio in the repeat runs, not every such curve was filed as active; inconclusive = weak or mixed curves; the % refers to the signal ratio; note: potency is the fitted concentration of half-maximal effect); conditions: HRE-bla ME-180 cells, beta-lactamase ratio, 17 h
In short: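 A low-serum medium (0.5% dialyzed FBS) holding 2,000 HRE-bla ME-180 cells per well is preincubated for 5 hrs, dosed with compounds by pintool, and kept a further 17 hrs at 37C, 5% CO2 before CCF4-AM FRET detection of beta-lactamase.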

[16] = qHTS assay to identify small molecule HDAC inhibitors (AID 1259364; active = well fitted curve in the direction sought with a large enough effect in the repeat runs; inconclusive = weak or mixed curves; inactive = no such curve, though single readings can be large; an effect the other way counts as inactive or inconclusive;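 note: wild-type HCT-116 cells with endogenous class I/II HDAC activity; potency is the fitted concentration of half-maximal effect; nearly all actives have a fitted effect of over 45% in size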); conditions: HCT-116 HDAC-Glo I/II luminescence, 2 h
In short: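 Read-out: luminescence of HDAC-Glo I/II reagent, 30 min RT, reflecting class I/II deacetylase activity in whole HCT-116 cells pre-exposed 2 h to DMSO-dissolved compounds.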

[17] = target: Estrogen receptor beta (Homo sapiens) (UniProt Q92731); assay: qHTS assay to identify small molecule agonists of the estrogen receptor beta (ER-beta) signaling pathway (AID 1259377; active = well fitted activation curve with a large enough effect in the signal ratio in the repeat runs, not every such curve was filed as active; inconclusive = weak or mixed curves, or effect the other way; the % refers to the signal ratio; note: potency is the fitted concentration of half-maximal effect); conditions: ER-beta-UAS-bla HEK293T, beta-lactamase FRET ratio, 16 h; activation: at 92.4 µM (top of the series)
[18] = target: Cytochrome P450 1A2 (Homo sapiens) (UniProt P05177); assay: Cytochrome P450 Family 1 Subfamily A Member 2 (CYP1A2) small molecule antagonists: luciferase reporter qHTS assay (AID 1671199; active = well fitted curve in the direction sought with a large enough effect in the repeat runs; inconclusive = weak or mixed curves; inactive = no such curve, though single readings can be large; an effect the other way counts as inactive or inconclusive; note: potency is the fitted concentration of half-maximal effect; nearly all actives have a fitted effect of over 50% in size); conditions: P450-Glo CYP1A2 enzyme, luciferin luminescence, 1 h
[19] = qHTS assay for small molecule disruptors of the mitochondrial membrane potential (AID 720635; active = well fitted curve in the direction sought with a large enough effect in the repeat runs; inconclusive = weak or mixed curves; inactive = no such curve, though single readings can be large; an effect the other way counts as inactive or inconclusive; note: % is set by controls: 0 for no effect and ±100 for the full control effect); conditions: HepG2 mitochondrial membrane potential, Mito-MPS dye ratio; ratio activity, negative = MMP loss: at 83.2 µM (top of the series) unless noted
[20] = target: Retinoic acid receptor RXR-alpha (Homo sapiens) (UniProt P19793); assay: qHTS assay to identify small molecule agonists of the RXR signaling pathway (AID 1159527); conditions: HEK293T RXRa-UAS-bla, beta-lactamase ratio, 16 h; activation: at 76.8 µM (top of the series); note: potency is the fitted concentration of half-maximal effect; nearly all actives have a fitted effect of over 35% in size
[21] = qHTS assay to identify small molecule agonists of the sonic hedgehog signaling (Shh) pathway - cell viability counter screen (AID 1259366; active = well fitted curve in the direction sought with a large enough effect in the repeat runs; inconclusive = weak or mixed curves; inactive = no such curve, though single readings can be large; an effect the other way counts as inactive or inconclusive; note: potency is the fitted concentration of half-maximal effect; nearly all actives have a fitted effect of over 50% in size); conditions: NIH/3T3 Gli1-Luc viability, CellTiter-Fluor, 24 h
In short: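 Cytotoxicity counter screen: CellTiter-Fluor reagent added after 23 h compound exposure, then 1 h at 37C and fluorescence read. Cells were 3T3 Gli1-Luc, seeded 2,000 per well and dosed 4 h post-plating.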

[22] = target: Progesterone receptor (Homo sapiens) (UniProt P06401); assay: qHTS assay to identify small molecule antagonists of the progesterone receptor (PR) signaling pathway (AID 1346795; active = well fitted inhibition curve with a large enough effect in the signal ratio in the repeat runs, not every such curve was filed as active; inconclusive = weak or mixed curves; the % refers to the signal ratio; note: % is set by controls: 0 for no effect and ±100 for the full control effect); conditions: PR-UAS-bla HEK293T, beta-lactamase FRET ratio, 16 h; activity change, negative = inhibition: at 92.4 µM (top of the series)
In short: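 Antagonist mode with agonist R5020 at 1 nM final and 16 hr incubation at 37C. Reporter was beta-lactamase driven by UAS in HEK293T (PR-UAS-bla), 2% charcoal-stripped serum; signal from LiveBLAzer FRET substrate, 2 hr at room temperature.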

O=[As]c1ccccc1 (centres undefined)
inconclusive: Potency [1] 3090 nM | Potency [2] 871 nM | Potency [3] 1100 nM | Potency [4] 486 nM | Potency [5] 776 nM | Potency [6] 490 nM | Potency [7] 486 nM | activation [8] 12.5% | Potency [9] 776 nM | Potency [10] 7760 nM | Potency [11] 616 nM | Potency [12] 6920 nM | Potency [13] 306 nM | Potency [14] 17200 nM | Potency [15] 1740 nM | Potency [16] 172 nM | Potency [17] 2170 nM | Potency [18] 39900 nM

O=[N+]([O-])c1ccc(S(=O)(=O)O)c([N+](=O)[O-])c1
inconclusive: ratio activity, negative = MMP loss [19] -8.23% [at 95.3 µM] | Potency [7] 30800 nM | Potency [20] 39100 nM | Potency [15] 39100 nM | Potency [21] 77400 nM | activity change, negative = inhibition [22] 0.631%
